# From PubChem BioAssay (NCI)
#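 Method: 48-hour compound exposure of cells in 96-well plates, five concentrations, linear interpolation of endpoints. Abbreviation: GI50, concentration required for 50% inhibition of growth. TGI: total growth inhibition.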
# Assays:
# Test in all cases: DTP human tumour cell line panel, 48 h
# 786-0 renal = test system: 786-0 renal
# A498 renal = test system: A498 renal
# A549 NSCLC = test system: A549 NSCLC
# ACHN renal = test system: ACHN renal
# BT-549 breast = test system: BT-549 breast
# CAKI-1 renal = test system: CAKI-1 renal
# CCRF-CEM leukemia = test system: CCRF-CEM leukemia
# COLO 205 colon = test system: COLO 205 colon
# DU-145 prostate = test system: DU-145 prostate
# EKVX NSCLC = test system: EKVX NSCLC
# HCC-2998 colon = test system: HCC-2998 colon
# HCT-116 colon = test system: HCT-116 colon
# HCT-15 colon = test system: HCT-15 colon
# HL-60(TB) leukemia = test system: HL-60(TB) leukemia
# HOP-62 NSCLC = test system: HOP-62 NSCLC
# HOP-92 NSCLC = test system: HOP-92 NSCLC
# HS 578T breast = test system: HS 578T breast
# HT29 colon = test system: HT29 colon
# IGROV1 ovarian = test system: IGROV1 ovarian
# K-562 leukemia = test system: K-562 leukemia
# KM12 colon = test system: KM12 colon
# LOX IMVI melanoma = test system: LOX IMVI melanoma
# M14 melanoma = test system: M14 melanoma
# MALME-3M melanoma = test system: MALME-3M melanoma
# MCF7 breast = test system: MCF7 breast
# MDA-MB-231 breast = test system: MDA-MB-231 breast
# MDA-MB-435 = test system: MDA-MB-435
# MDA-N = test system: MDA-N
# MOLT-4 leukemia = test system: MOLT-4 leukemia
# NCI-H23 lung = test system: NCI-H23 lung
# NCI-H322M lung = test system: NCI-H322M lung
# NCI-H460 lung = test system: NCI-H460 lung
# NCI-H522 lung = test system: NCI-H522 lung
# NCI/ADR-RES ovarian = test system: NCI/ADR-RES ovarian
# OVCAR-3 ovarian = test system: OVCAR-3 ovarian
# OVCAR-4 ovarian = test system: OVCAR-4 ovarian
# OVCAR-5 ovarian = test system: OVCAR-5 ovarian
# OVCAR-8 ovarian = test system: OVCAR-8 ovarian
# PC-3 prostate = test system: PC-3 prostate
# RPMI-8226 leukemia = test system: RPMI-8226 leukemia
# RXF 393 renal = test system: RXF 393 renal
# SF-268 CNS = test system: SF-268 CNS
# SF-295 CNS = test system: SF-295 CNS
# SF-539 CNS = test system: SF-539 CNS
# SK-MEL-2 melanoma = test system: SK-MEL-2 melanoma
# SK-MEL-28 melanoma = test system: SK-MEL-28 melanoma
# SK-MEL-5 melanoma = test system: SK-MEL-5 melanoma
# SK-OV-3 ovarian = test system: SK-OV-3 ovarian
# SN12C renal = test system: SN12C renal
# SNB-19 CNS = test system: SNB-19 CNS
# SNB-75 CNS = test system: SNB-75 CNS
# SR leukemia = test system: SR leukemia
# SW-620 colon = test system: SW-620 colon
# T-47D breast = test system: T-47D breast
# TK-10 renal = test system: TK-10 renal
# U251 CNS = test system: U251 CNS
# UACC-257 melanoma = test system: UACC-257 melanoma
# UACC-62 melanoma = test system: UACC-62 melanoma
# UO-31 renal = test system: UO-31 renal
smiles,measurement,setting,value
C/C=C(\F)P(=O)(OCC)OCC,GI50,786-0 renal,> 100 µM
same,TGI,786-0 renal,> 100 µM
same,GI50,A498 renal,> 100 µM
same,TGI,A498 renal,> 100 µM
same,GI50,A549 NSCLC,> 100 µM
same,TGI,A549 NSCLC,> 100 µM
same,GI50,ACHN renal,> 100 µM
same,TGI,ACHN renal,> 100 µM
same,GI50,BT-549 breast,> 100 µM
same,TGI,BT-549 breast,> 100 µM
same,GI50,CAKI-1 renal,> 100 µM
same,TGI,CAKI-1 renal,> 100 µM
same,GI50,CCRF-CEM leukemia,> 100 µM
same,TGI,CCRF-CEM leukemia,> 100 µM
same,GI50,COLO 205 colon,> 100 µM
same,TGI,COLO 205 colon,> 100 µM
same,GI50,DU-145 prostate,> 100 µM
same,TGI,DU-145 prostate,> 100 µM
same,GI50,EKVX NSCLC,> 100 µM
same,TGI,EKVX NSCLC,> 100 µM
same,GI50,HCC-2998 colon,> 100 µM
same,TGI,HCC-2998 colon,> 100 µM
same,GI50,HCT-116 colon,> 100 µM
same,TGI,HCT-116 colon,> 100 µM
same,GI50,HCT-15 colon,> 100 µM
same,TGI,HCT-15 colon,> 100 µM
same,GI50,HL-60(TB) leukemia,> 100 µM
same,TGI,HL-60(TB) leukemia,> 100 µM
same,GI50,HOP-62 NSCLC,> 100 µM
same,TGI,HOP-62 NSCLC,> 100 µM
same,GI50,HOP-92 NSCLC,> 100 µM
same,TGI,HOP-92 NSCLC,> 100 µM
same,GI50,HS 578T breast,> 100 µM
same,TGI,HS 578T breast,> 100 µM
same,GI50,HT29 colon,> 100 µM
same,TGI,HT29 colon,> 100 µM
same,GI50,IGROV1 ovarian,> 100 µM
same,TGI,IGROV1 ovarian,> 100 µM
same,GI50,K-562 leukemia,> 100 µM
same,TGI,K-562 leukemia,> 100 µM
same,GI50,KM12 colon,> 100 µM
same,TGI,KM12 colon,> 100 µM
same,GI50,LOX IMVI melanoma,> 100 µM
same,TGI,LOX IMVI melanoma,> 100 µM
same,GI50,M14 melanoma,> 100 µM
same,TGI,M14 melanoma,> 100 µM
same,GI50,MALME-3M melanoma,> 100 µM
same,TGI,MALME-3M melanoma,> 100 µM
same,GI50,MCF7 breast,> 100 µM
same,TGI,MCF7 breast,> 100 µM
same,GI50,MDA-MB-231 breast,> 100 µM
same,TGI,MDA-MB-231 breast,> 100 µM
same,GI50,MDA-MB-435,> 100 µM
same,TGI,MDA-MB-435,> 100 µM
same,GI50,MDA-N,> 100 µM
same,TGI,MDA-N,> 100 µM
same,GI50,MOLT-4 leukemia,> 100 µM
same,TGI,MOLT-4 leukemia,> 100 µM
same,GI50,NCI-H23 lung,> 100 µM
same,TGI,NCI-H23 lung,> 100 µM
same,GI50,NCI-H322M lung,> 100 µM
same,TGI,NCI-H322M lung,> 100 µM
same,GI50,NCI-H460 lung,> 100 µM
same,TGI,NCI-H460 lung,> 100 µM
same,GI50,NCI-H522 lung,> 100 µM
same,TGI,NCI-H522 lung,> 100 µM
same,GI50,NCI/ADR-RES ovarian,> 100 µM
same,TGI,NCI/ADR-RES ovarian,> 100 µM
same,GI50,OVCAR-3 ovarian,> 100 µM
same,TGI,OVCAR-3 ovarian,> 100 µM
same,GI50,OVCAR-4 ovarian,> 100 µM
same,TGI,OVCAR-4 ovarian,> 100 µM
same,GI50,OVCAR-5 ovarian,> 100 µM
same,TGI,OVCAR-5 ovarian,> 100 µM
same,GI50,OVCAR-8 ovarian,> 100 µM
same,TGI,OVCAR-8 ovarian,> 100 µM
same,GI50,PC-3 prostate,> 100 µM
same,TGI,PC-3 prostate,> 100 µM
same,GI50,RPMI-8226 leukemia,> 100 µM
same,TGI,RPMI-8226 leukemia,> 100 µM
same,GI50,RXF 393 renal,> 100 µM
same,TGI,RXF 393 renal,> 100 µM
same,GI50,SF-268 CNS,> 100 µM
same,TGI,SF-268 CNS,> 100 µM
same,GI50,SF-295 CNS,> 100 µM
same,TGI,SF-295 CNS,> 100 µM
same,GI50,SF-539 CNS,> 100 µM
same,TGI,SF-539 CNS,> 100 µM
same,GI50,SK-MEL-2 melanoma,> 100 µM
same,TGI,SK-MEL-2 melanoma,> 100 µM
same,GI50,SK-MEL-28 melanoma,> 100 µM
same,TGI,SK-MEL-28 melanoma,> 100 µM
same,GI50,SK-MEL-5 melanoma,> 100 µM
same,TGI,SK-MEL-5 melanoma,> 100 µM
same,GI50,SK-OV-3 ovarian,> 100 µM
same,TGI,SK-OV-3 ovarian,> 100 µM
same,GI50,SN12C renal,> 100 µM
same,TGI,SN12C renal,> 100 µM
same,GI50,SNB-19 CNS,> 100 µM
same,TGI,SNB-19 CNS,> 100 µM
same,GI50,SNB-75 CNS,> 100 µM
same,TGI,SNB-75 CNS,> 100 µM
same,GI50,SR leukemia,> 100 µM
same,TGI,SR leukemia,> 100 µM
same,GI50,SW-620 colon,> 100 µM
same,TGI,SW-620 colon,> 100 µM
same,GI50,T-47D breast,> 100 µM
same,TGI,T-47D breast,> 100 µM
same,GI50,TK-10 renal,> 100 µM
same,TGI,TK-10 renal,> 100 µM
same,GI50,U251 CNS,> 100 µM
same,TGI,U251 CNS,> 100 µM
same,GI50,UACC-257 melanoma,> 100 µM
same,TGI,UACC-257 melanoma,> 100 µM
same,GI50,UACC-62 melanoma,> 100 µM
same,TGI,UACC-62 melanoma,> 100 µM
same,GI50,UO-31 renal,> 100 µM
same,TGI,UO-31 renal,> 100 µM
